Results reported in publication PMC8427951, “Design, synthesis, and preliminary evaluation of a potential synthetic opioid rescue agent” (Journal of Biomedical Science, 2021).

The chains behind the UniProt entries cited, without tags or fusion partners.
UniProt P35372, whole entry: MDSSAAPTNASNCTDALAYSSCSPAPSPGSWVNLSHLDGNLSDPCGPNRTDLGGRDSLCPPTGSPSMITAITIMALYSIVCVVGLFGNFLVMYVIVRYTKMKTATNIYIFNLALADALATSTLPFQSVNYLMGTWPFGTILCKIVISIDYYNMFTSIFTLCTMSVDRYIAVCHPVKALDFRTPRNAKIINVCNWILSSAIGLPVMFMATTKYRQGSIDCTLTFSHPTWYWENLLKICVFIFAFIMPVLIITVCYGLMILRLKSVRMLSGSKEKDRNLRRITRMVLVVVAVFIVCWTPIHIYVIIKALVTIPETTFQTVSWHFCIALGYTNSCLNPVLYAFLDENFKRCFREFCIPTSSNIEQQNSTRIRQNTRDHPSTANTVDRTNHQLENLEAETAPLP

Columns and labels:
[1] = target: T1, human μ opioid receptor (MOR) (Homo sapiens, UniProt P35372); experiment: Forskolin-induced cAMP accumulation (HitHunter cAMP assay), MOR antagonism versus fentanyl; conditions: versus EC90 of fentanyl; for IC50: read-out: MOR antagonism IC50, at least three measurements; for IC50 / MOR antagonism Imax (degree of antagonism): 15 min pretreatment, mean ± SEM; for MOR antagonism Imax (degree of antagonism): normalized to 4b
[2] = target: T1, human μ opioid receptor (MOR); experiment: Forskolin-induced cAMP accumulation (HitHunter cAMP assay), MOR agonism; conditions: mean ± SEM; for MOR agonism % efficacy: percent stimulation; for EC50: read-out: MOR agonism EC50, at least three measurements

Structure (SMILES) | IC50 [1] [nM] | MOR antagonism Imax (degree of antagonism) [1] | MOR agonism % efficacy [2] [%] | EC50 [2] [nM] | level of antagonism with longer pretreatment ([1]; pretreatment time 2 h)
Oc1ccc2c3c1O[C@H]1CCC[C@@]4(O)[C@@H](C2)N(CC2CC2)CC[C@]314 | 8.83 | 121.83 ± 5.64% | 31.69 ± 3.69 | 0.88 | 
O=C1CC[C@@]2(O)[C@H]3Cc4cccc5c4[C@@]2(CCN3CC2CC2)[C@H]1O5 | > 10000 |  | 27.42 ± 5.41 | 139 | 
COC(=O)/C=C/C(=O)N[C@@H]1CC[C@@]2(O)[C@H]3Cc4ccc(O)c5c4[C@@]2(CCN3CC2CC2)[C@H]1O5 |  | 60.0% and 59.98 ± 9.42% |  |  | full level of antagonism
COc1ccc2c3c1O[C@H]1C(=O)CC[C@@]4(O)[C@@H](C2)N(CC2CC2)CC[C@]314 | > 10000 |  | 45.87 ± 8.62 | 103 | 
CO[C@@]12CCC(=O)[C@@H]3Oc4c(O)ccc5c4[C@@]31CCN(CC1CC1)[C@@H]2C5 | 13.3 | 71.74 ± 12.10% | 25.31 ± 2.76 | 2.99 | 
O=C(CCc1ccccc1)O[C@@]12CCC(=O)[C@@H]3Oc4c(O)ccc5c4[C@@]31CCN(CC1CC1)[C@@H]2C5 |  |  | 78.98 ± 3.84 |  | 
CCO[C@@]12CCC(=O)[C@@H]3Oc4c(O)ccc5c4[C@@]31CCN(CC1CC1)[C@@H]2C5 | 3.97 | 89.24 ± 5.87% | 49.66 ± 8.51 | 0.44 | 
O=C1CC[C@@]2(OCc3ccccc3)[C@H]3Cc4ccc(O)c5c4[C@@]2(CCN3CC2CC2)[C@H]1O5 | 39 | 102.54 ± 26.42% | 19.98 ± 1.1 | 15.4 | 
O=C1CC[C@@]2(OCCCc3ccccc3)[C@H]3Cc4ccc(O)c5c4[C@@]2(CCN3CC2CC2)[C@H]1O5 |  |  | 101.01 ± 1.86 |  | 

Values joined by “and” are separate entries in the source; they are usually repeats but may differ in a detail not shown here. Equal entries are not always repeated.
